From PubChem BioAssay AID540336 (Broad Institute, 2011)
The entries are a selection whose mix differs from that of the whole data set. Calls of active or inactive are those of the source.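 How the source made its calls: active means inhibition of at least 50% in every replicate; inconclusive means best replicate reaches 50% inhibition but some replicates fall short; inactive means the rest.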

Amino acid sequences for entries named in this document (tags omitted).
UniProt Q5AAJ8, whole entry: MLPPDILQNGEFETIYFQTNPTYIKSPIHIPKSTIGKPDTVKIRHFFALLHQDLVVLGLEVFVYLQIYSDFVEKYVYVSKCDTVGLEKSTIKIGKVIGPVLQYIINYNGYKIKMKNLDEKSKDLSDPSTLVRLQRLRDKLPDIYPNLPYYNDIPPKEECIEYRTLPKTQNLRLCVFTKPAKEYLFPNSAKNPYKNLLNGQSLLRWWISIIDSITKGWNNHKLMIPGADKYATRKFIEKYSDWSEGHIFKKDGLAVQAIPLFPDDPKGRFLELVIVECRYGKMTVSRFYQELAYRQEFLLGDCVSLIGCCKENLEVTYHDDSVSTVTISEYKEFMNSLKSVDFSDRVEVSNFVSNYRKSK

Target: Histone acetyltransferase RTT109 (Candida albicans (strain SC5314 / ATCC MYA-2876)) (UniProt Q5AAJ8)
Experiment: Rtt109-Vps75 histone acetyltransferase blockade – biochemical, ThioGlo CoA-SH fluorescence, plate reader, primary screen (AID 540336)
Conditions: purified Rtt109/Vps75, ThioGlo CoA-SH fluorescence, 4 h; at 34.9 µM; stronger effect = higher value

Row | Structure (SMILES) | inhibition
1 | CCC(=O)N(c1ccccc1)C1(COC)CCN(CCn2nnn(CC)c2=O)CC1 | inactive: 3.04%
2 | CCC(=O)N(c1ccccc1)C1(COC)CCN(CCc2cccs2)CC1 | inactive: 13.6%
